From PubChem BioAssay AID651999 (Sanford-Burnham Center for Chemical Genomics, 2013)
The entries are a selection whose mix differs from that of the whole data set. Active and inactive are the calls of the source.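 The calls were made as follows: active = pattern-corrected inhibition above about 35%, with an unprinted fluorescence ratio check between 0.5 and 1.5 (limit read from the data, passing the limit was not always enough); inactive = the rest.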

By UniProt entry, the sequences of proteins in these tests, tags left out.
UniProt Q92905, whole entry, looked up: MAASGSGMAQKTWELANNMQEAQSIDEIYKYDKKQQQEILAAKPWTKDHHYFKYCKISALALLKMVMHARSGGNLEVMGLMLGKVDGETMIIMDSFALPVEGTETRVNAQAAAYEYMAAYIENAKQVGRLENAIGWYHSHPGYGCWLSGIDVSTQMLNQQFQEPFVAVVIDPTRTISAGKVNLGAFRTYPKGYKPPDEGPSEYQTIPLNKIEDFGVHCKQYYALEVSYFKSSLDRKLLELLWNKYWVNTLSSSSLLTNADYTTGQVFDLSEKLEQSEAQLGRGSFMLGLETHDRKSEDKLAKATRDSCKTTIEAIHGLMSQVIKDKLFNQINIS

Molecular target: COP9 signalosome complex subunit 5 (Homo sapiens) (UniProt Q92905)
Assay: CSN5 deneddylase inhibitors on cullin-RING ligase – biochemical, fluorescence polarization, uHTS, primary screen (AID 651999);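 also: 0% = enzyme with substrate and 100% = substrate without enzyme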
Conditions: Purified CSN, SCF-Nedd8-OG deneddylation, at 12.5 µM, active compounds read high
Method in brief: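 Detection – fluorescence polarization · System – HEK293T-derived human Csn5 enzyme · Controls – substrate-only high control, full reaction low control · Timing – 90 min, room temperature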

Compound | inhibition
Cc1ccc(NCCc2c([N+](=O)[O-])cc([N+](=O)[O-])cc2[N+](=O)[O-])cc1 | inactive: 1%
CCCOP(=S)(Nc1nc(N)cc(=O)[nH]1)OCCC | inactive: -2.92%
COc1cc(C2NCCC3(OCCO3)C2(C)C)cc(OC)c1OC (centres undefined) | inactive: 1.31%
CCOP(=O)(Nc1cccc2ccccc12)OCC | inactive: -3.55%
O=C(OC1CN2CCC1CC2)c1ccc(Cl)cc1 (centres undefined) | inactive: -1.58%
O=[As](O)(O)c1cccnc1 | inactive: -0.53%
COc1cc(C(=O)NCC2(N3CCOCC3)CCCCC2)cc(Cl)c1OC(C)C | inactive: -7.14%
CS(=O)(=O)c1ccc(Cl)c(NC(=O)COC(=O)C(O)(c2ccccc2)c2ccccc2)c1 | inactive: -0.08%
Cc1cccc(OCC(=O)OC2CN3CCC2CC3)c1 (centres undefined) | inactive: 1.26%
O=[As](O)(c1cccc(O)c1)c1cccc(O)c1 | inactive: 1.49%
COc1ccccc1CNC(=O)COC(=O)C(O)(c1ccccc1)c1ccccc1 | inactive: 0.29%
CC(C)/C=N\N=C(\N)N[N+](=O)[O-] | inactive: 6.16%
CN(C(=O)Cc1ccc(Cl)c(Cl)c1)[C@@H]1CCCC[C@H]1N1CCCC1 | inactive: 2.99%
CC1(CBr)Cn2c(nc3ccccc3c2=O)S1 (centres undefined) | inactive: 2.12%
O=P1(Nc2ccccn2)COc2ccccc2OC1 | inactive: 2.53%
CCC1=CC2Cc3nc4ccc(Cl)cc4c(N)c3C(C1)C2 (centres undefined) | inactive: 2.53%
CCOP(=O)(NC(=NC(C)c1ccccc1)NC(C)c1ccccc1)OCC (centres undefined) | inactive: 4.72%
CCOP(=O)(Nc1ccc(C)cn1)OCC | inactive: 2.89%
CN(CCCl)Cc1cc(Cl)c(NC2=NCCN2)c(Cl)c1 | inactive: 5.03%
O=P1(N(CCCl)CCCl)NCCC(C(F)(F)F)O1 (centres undefined) | inactive: 0.53%
Clc1n[nH]nc1-c1nn[nH][15n]1 | inactive: 8.07%
CC(C)(C)C(=O)NC(Sc1ncccn1)C(Cl)(Cl)Cl (centres undefined) | inactive: 1.11%
Cc1ccc(S(=O)(=O)N(CCCN)CCCc2c(C)nc(N)[nH]c2=O)cc1 | inactive: -0.27%
O=P1(Nc2ncccn2)COc2ccccc2OC1 | inactive: -0.1%
Nc1cccc([As](=O)(O)c2ccccc2)c1 | inactive: -4.23%
O=[As](O)(c1cccs1)c1cccs1 | inactive: 5.25%
Cc1ccc(OCC(=O)OC2CN3CCC2CC3)cc1 (centres undefined) | inactive: 6.48%
O=P1(Nc2ccc(Br)cn2)COc2ccccc2OC1 | inactive: 0.62%
NS(=O)(=O)c1cccc(NC(=O)COC(=O)C(O)(c2ccccc2)c2ccccc2)c1 | inactive: 2.78%
